{
  "sequences": {"note": "Chains of the proteins cited; added tags and fusions are not shown.", "UniProt Q00975, whole entry": "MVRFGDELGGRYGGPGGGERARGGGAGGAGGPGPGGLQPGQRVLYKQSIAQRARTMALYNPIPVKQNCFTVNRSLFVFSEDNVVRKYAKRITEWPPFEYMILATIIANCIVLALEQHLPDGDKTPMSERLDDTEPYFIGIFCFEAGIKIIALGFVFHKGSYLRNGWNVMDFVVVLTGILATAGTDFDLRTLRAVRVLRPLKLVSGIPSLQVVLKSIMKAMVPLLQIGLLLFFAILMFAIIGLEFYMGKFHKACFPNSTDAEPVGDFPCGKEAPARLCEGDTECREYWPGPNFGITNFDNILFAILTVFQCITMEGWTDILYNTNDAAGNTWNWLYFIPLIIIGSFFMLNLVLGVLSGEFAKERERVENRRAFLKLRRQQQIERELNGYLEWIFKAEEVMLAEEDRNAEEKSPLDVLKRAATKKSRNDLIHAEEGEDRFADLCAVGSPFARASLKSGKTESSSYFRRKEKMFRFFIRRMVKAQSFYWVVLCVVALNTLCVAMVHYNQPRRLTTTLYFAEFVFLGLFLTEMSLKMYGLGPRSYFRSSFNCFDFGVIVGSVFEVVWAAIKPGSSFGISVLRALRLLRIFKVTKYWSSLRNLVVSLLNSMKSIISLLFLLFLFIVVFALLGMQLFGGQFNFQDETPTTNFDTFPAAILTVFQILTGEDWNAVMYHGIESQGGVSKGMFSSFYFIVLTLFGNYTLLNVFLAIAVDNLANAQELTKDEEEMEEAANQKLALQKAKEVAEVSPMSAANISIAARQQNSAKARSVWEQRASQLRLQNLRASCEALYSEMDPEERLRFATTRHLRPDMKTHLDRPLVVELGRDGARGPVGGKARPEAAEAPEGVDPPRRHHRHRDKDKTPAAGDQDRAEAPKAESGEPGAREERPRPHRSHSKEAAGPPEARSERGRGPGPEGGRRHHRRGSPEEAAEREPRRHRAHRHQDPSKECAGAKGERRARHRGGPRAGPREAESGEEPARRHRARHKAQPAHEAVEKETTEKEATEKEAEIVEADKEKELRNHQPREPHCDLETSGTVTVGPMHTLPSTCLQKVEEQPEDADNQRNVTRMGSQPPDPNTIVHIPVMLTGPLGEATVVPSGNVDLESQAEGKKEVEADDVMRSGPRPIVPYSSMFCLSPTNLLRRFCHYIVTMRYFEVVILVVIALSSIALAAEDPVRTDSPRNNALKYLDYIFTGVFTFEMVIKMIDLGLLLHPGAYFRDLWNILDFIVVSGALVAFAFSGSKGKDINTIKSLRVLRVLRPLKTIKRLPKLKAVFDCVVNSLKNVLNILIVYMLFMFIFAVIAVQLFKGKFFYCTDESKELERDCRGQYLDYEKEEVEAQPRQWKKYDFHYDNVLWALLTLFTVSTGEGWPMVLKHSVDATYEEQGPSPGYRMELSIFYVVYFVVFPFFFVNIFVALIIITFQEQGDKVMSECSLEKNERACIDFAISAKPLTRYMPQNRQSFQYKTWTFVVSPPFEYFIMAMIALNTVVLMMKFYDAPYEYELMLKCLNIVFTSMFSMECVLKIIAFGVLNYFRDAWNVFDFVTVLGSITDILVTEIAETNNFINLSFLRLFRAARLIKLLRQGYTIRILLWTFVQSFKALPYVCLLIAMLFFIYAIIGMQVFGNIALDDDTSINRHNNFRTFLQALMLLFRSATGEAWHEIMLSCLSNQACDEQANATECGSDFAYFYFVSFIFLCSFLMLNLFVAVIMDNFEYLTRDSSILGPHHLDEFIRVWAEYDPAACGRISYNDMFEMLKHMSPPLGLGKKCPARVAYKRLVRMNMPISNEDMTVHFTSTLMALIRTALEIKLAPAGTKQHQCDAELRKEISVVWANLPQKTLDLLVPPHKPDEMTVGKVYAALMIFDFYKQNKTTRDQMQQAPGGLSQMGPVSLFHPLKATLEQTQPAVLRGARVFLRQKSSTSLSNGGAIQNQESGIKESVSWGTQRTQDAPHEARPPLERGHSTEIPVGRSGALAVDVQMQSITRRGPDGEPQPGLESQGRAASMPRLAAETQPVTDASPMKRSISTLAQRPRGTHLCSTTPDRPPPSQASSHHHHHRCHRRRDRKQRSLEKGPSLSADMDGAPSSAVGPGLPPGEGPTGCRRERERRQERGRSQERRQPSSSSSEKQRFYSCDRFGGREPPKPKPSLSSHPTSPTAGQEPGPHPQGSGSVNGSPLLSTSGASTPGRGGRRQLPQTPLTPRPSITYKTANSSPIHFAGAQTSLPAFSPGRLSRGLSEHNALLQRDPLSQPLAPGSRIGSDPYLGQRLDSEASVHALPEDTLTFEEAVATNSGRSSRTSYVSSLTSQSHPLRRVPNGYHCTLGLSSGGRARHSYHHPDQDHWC"},
  "source": "ChEMBL document CHEMBL2203054",
  "about": "“Synthesis and biological evaluation of a selective N- and p/q-type calcium channel agonist” (ACS Med Chem Lett, 2012)",
  "molecular_target": "Voltage-dependent N-type calcium channel subunit alpha-1B (Homo sapiens, UniProt Q00975)",
  "experiment": "Agonist activity at N-type Cav2.2 channel expressed in tsA201 cell assessed as calcium current by whole-cell patch clamp method",
  "type": "functional, cell-based",
  "data": [
    {"smiles": "CC[C@H](CO)Nc1nc(NCc2ccccc2)c2ncn(C(C)C)c2n1", "note": "[SELICICLIB]", "values": [
      {"measurement": "EC50", "value": 27.6, "unit": "µM"}
    ]}
  ]
}
